Measurements taken from US8828401B2, “Cytotoxic peptides and antibody drug conjugates thereof” (Pfizer Inc., priority 2011, dated 2014).

Key:
[1] = system: MDA-MB-468 breast xenografts; assay: MDA-MB-468 breast xenografts with anti-Notch ADCs; assay type: in vivo, female SCID Hairless Outbred (SHO) mice; conditions: vc6780 study, Dose 10 mg/kg Q4dx4 iv
Method: (§1) Humanized anti-Notch antibodies, hu28 and hu75, and rat-human chimeric anti-Notch antibodies, ch28 and ch75, were conjugated to various linker-payload combinations and tested in 37622A1 non-small cell lung cancer (NSCLC), HCC2429 lung cancer, MDA-MB-468 breast cancer and N87 gastric cancer xenograft models. For each model described below the first dose was given on Day 0. The tumors were measured at least once a week and their volume was calculated with the formula: tumor volume (mm^3)=0.5×(tumor width^2)(tumor length). The mean tumor volumes (±S.E.M.) for each treatment group were calculated having a maximum of 10 animals and a minimum of 6 animals to be included.
Similar in vivo experiments were performed with the MDA-MB-468 breast cancer cell line as described above. […] To generate xenografts, female SCID Hairless Outbred (SHO) mice were orthotopically implanted with 10×10^6 MDA-MB-468 cells containing 50% Matrigel (BD Biosciences) in the mammary fat pad. When the tumors reached a volume of 250 to 450 mm^3, the tumors were staged to ensure uniformity of the tumor mass among various treatment groups. The MDA-MB-468 breast model was dosed intraveneously Q4dx4 with PBS vehicle, humanized anti-Notch ADCs and control huNeg-8.8 ADCs at the doses provided in Tables 14 and 15.

N87 gastric xenografts = N87 gastric xenografts with anti-Notch ADCs; assay type: in vivo, nude (Nu/Nu) female mice; conditions: for tumor volume (mm^3 ± SEM): vc6780 study
Method: as §1
Similar in vivo experiments were performed with the N87 gastric cancer cell line as described above. […] When the tumors reached a volume of 250 to 450 mm^3, the tumors were staged to ensure uniformity of the tumor mass among various treatment groups. The N87 gastric model was dosed intraveneously Q4dx4 with PBS vehicle, humanized anti-Notch ADCs, control huNeg-8.8 ADCs and cisplatin at the doses provided in Tables 16 and 17.

B1: hu75-vc6780 (conjugate)
heavy: EVQLVESGGGLVQPGGSLRLSCAASGYAFTDYWMTWVRQAPGKGLEWVAEISPNSGGTNFNEKFKGRFTISVDNAKNSLYLQMNSLRAEDTAVYYCARGEIRYNWFAYWGQGTLVTVSSASTKGPSVFPLAPSSKSTSGGTAALGCLVKDYFPEPVTVSWNSGALTSGVHTFPAVLQSSGLYSLSSVVTVPSSSLGTQTYICNVNHKPSNTKVDKKV[human IgG1 Fc left out]
light: DIQMTQSPSSLSASVGDRVTITCKASQNVGNNIAWYQQKPGKAPKLLIYYASNRYTGVPSRFSGSGYGTDFTLTISSLQPEDFATYYCQRLYNSPFTFGGGTKVEIKRTVAAPSVFIFPPSDEQLKSGTASVVCLLNNFYPREAKVQWKVDNALQSGNSQESVTEQDSKDSTYSLSSTLTLSKADYEKHKVYACEVTHQGLSSPVTKSFNRGEC
tumor volume (mm^3 ± SEM) ([1]; DAY 60): 240 ± 63 mm^3
tumor volume (mm^3 ± SEM) ([1]; DAY 63): 201 ± 57 mm^3
effect on growth of N87 gastric xenografts (in words) (N87 gastric xenografts; humanized ADCs, Q4dx4, doses of Tables 16 and 17): inhibited growth of N87 gastric xenografts in a dose-dependent manner
tumor volume (mm^3 ± SEM) (N87 gastric xenografts; Dose 1 mg/kg Q4dx4 iv, DAY 0): 359 ± 16 mm^3
tumor volume (mm^3 ± SEM) (N87 gastric xenografts; Dose 1 mg/kg Q4dx4 iv, DAY 4): 552 ± 40 mm^3
tumor volume (mm^3 ± SEM) (N87 gastric xenografts; Dose 1 mg/kg Q4dx4 iv, DAY 8): 568 ± 62 mm^3
tumor volume (mm^3 ± SEM) (N87 gastric xenografts; Dose 1 mg/kg Q4dx4 iv, DAY 11): 591 ± 63 mm^3
tumor volume (mm^3 ± SEM) (N87 gastric xenografts; Dose 1 mg/kg Q4dx4 iv, DAY 14): 666 ± 77 mm^3
tumor volume (mm^3 ± SEM) (N87 gastric xenografts; Dose 1 mg/kg Q4dx4 iv, DAY 18): 642 ± 90 mm^3
tumor volume (mm^3 ± SEM) (N87 gastric xenografts; Dose 1 mg/kg Q4dx4 iv, DAY 21): 710 ± 117 mm^3
tumor volume (mm^3 ± SEM) (N87 gastric xenografts; Dose 1 mg/kg Q4dx4 iv, DAY 25): 748 ± 138 mm^3
tumor volume (mm^3 ± SEM) (N87 gastric xenografts; Dose 1 mg/kg Q4dx4 iv, DAY 28): 763 ± 145 mm^3
tumor volume (mm^3 ± SEM) (N87 gastric xenografts; Dose 1 mg/kg Q4dx4 iv, DAY 33): 991 ± 239 mm^3
tumor volume (mm^3 ± SEM) (N87 gastric xenografts; Dose 3 mg/kg Q4dx4 iv, DAY 0): 351 ± 20 mm^3
tumor volume (mm^3 ± SEM) (N87 gastric xenografts; Dose 3 mg/kg Q4dx4 iv, DAY 4): 545 ± 37 mm^3
tumor volume (mm^3 ± SEM) (N87 gastric xenografts; Dose 3 mg/kg Q4dx4 iv, DAY 8): 511 ± 31 mm^3
tumor volume (mm^3 ± SEM) (N87 gastric xenografts; Dose 3 mg/kg Q4dx4 iv, DAY 11): 544 ± 43 mm^3
tumor volume (mm^3 ± SEM) (N87 gastric xenografts; Dose 3 mg/kg Q4dx4 iv, DAY 14): 558 ± 36 mm^3
tumor volume (mm^3 ± SEM) (N87 gastric xenografts; Dose 3 mg/kg Q4dx4 iv, DAY 18): 494 ± 41 mm^3
tumor volume (mm^3 ± SEM) (N87 gastric xenografts; Dose 3 mg/kg Q4dx4 iv, DAY 21): 534 ± 41 mm^3
tumor volume (mm^3 ± SEM) (N87 gastric xenografts; Dose 3 mg/kg Q4dx4 iv, DAY 25): 628 ± 58 mm^3
tumor volume (mm^3 ± SEM) (N87 gastric xenografts; Dose 3 mg/kg Q4dx4 iv, DAY 28): 645 ± 57 mm^3
tumor volume (mm^3 ± SEM) (N87 gastric xenografts; Dose 3 mg/kg Q4dx4 iv, DAY 33): 730 ± 66 mm^3
tumor volume (mm^3 ± SEM) (N87 gastric xenografts; Dose 3 mg/kg Q4dx4 iv, DAY 36): 850 ± 74 mm^3
tumor volume (mm^3 ± SEM) (N87 gastric xenografts; Dose 3 mg/kg Q4dx4 iv, DAY 39): 881 ± 88 mm^3
tumor volume (mm^3 ± SEM) (N87 gastric xenografts; Dose 3 mg/kg Q4dx4 iv, DAY 42): 1020 ± 99 mm^3
tumor volume (mm^3 ± SEM) (N87 gastric xenografts; Dose 3 mg/kg Q4dx4 iv, DAY 46): 1097 ± 129 mm^3
tumor volume (mm^3 ± SEM) (N87 gastric xenografts; Dose 3 mg/kg Q4dx4 iv, DAY 50): 1162 ± 134 mm^3
tumor volume (mm^3 ± SEM) (N87 gastric xenografts; Dose 3 mg/kg Q4dx4 iv, DAY 56): 1331 ± 187 mm^3
tumor volume (mm^3 ± SEM) (N87 gastric xenografts; Dose 10 mg/kg Q4dx4 iv, DAY 0): 349 ± 8 mm^3
tumor volume (mm^3 ± SEM) (N87 gastric xenografts; Dose 10 mg/kg Q4dx4 iv, DAY 4): 468 ± 18 mm^3
tumor volume (mm^3 ± SEM) (N87 gastric xenografts; Dose 10 mg/kg Q4dx4 iv, DAY 8): 351 ± 24 mm^3
tumor volume (mm^3 ± SEM) (N87 gastric xenografts; Dose 10 mg/kg Q4dx4 iv, DAY 11): 316 ± 25 mm^3
tumor volume (mm^3 ± SEM) (N87 gastric xenografts; Dose 10 mg/kg Q4dx4 iv, DAY 14): 269 ± 27 mm^3
tumor volume (mm^3 ± SEM) (N87 gastric xenografts; Dose 10 mg/kg Q4dx4 iv, DAY 18): 224 ± 26 mm^3
tumor volume (mm^3 ± SEM) (N87 gastric xenografts; Dose 10 mg/kg Q4dx4 iv, DAY 21): 192 ± 19 mm^3
tumor volume (mm^3 ± SEM) (N87 gastric xenografts; Dose 10 mg/kg Q4dx4 iv, DAY 25): 227 ± 32 mm^3
tumor volume (mm^3 ± SEM) (N87 gastric xenografts; Dose 10 mg/kg Q4dx4 iv, DAY 28): 244 ± 35 mm^3
tumor volume (mm^3 ± SEM) (N87 gastric xenografts; Dose 10 mg/kg Q4dx4 iv, DAY 33): 267 ± 52 mm^3
tumor volume (mm^3 ± SEM) (N87 gastric xenografts; Dose 10 mg/kg Q4dx4 iv, DAY 36): 300 ± 64 mm^3
tumor volume (mm^3 ± SEM) (N87 gastric xenografts; Dose 10 mg/kg Q4dx4 iv, DAY 39): 323 ± 69 mm^3
tumor volume (mm^3 ± SEM) (N87 gastric xenografts; Dose 10 mg/kg Q4dx4 iv, DAY 42): 350 ± 78 mm^3
tumor volume (mm^3 ± SEM) (N87 gastric xenografts; Dose 10 mg/kg Q4dx4 iv, DAY 46): 380 ± 78 mm^3
tumor volume (mm^3 ± SEM) (N87 gastric xenografts; Dose 10 mg/kg Q4dx4 iv, DAY 50): 415 ± 77 mm^3
tumor volume (mm^3 ± SEM) (N87 gastric xenografts; Dose 10 mg/kg Q4dx4 iv, DAY 56): 504 ± 111 mm^3
tumor volume (mm^3 ± SEM) (N87 gastric xenografts; Dose 10 mg/kg Q4dx4 iv, DAY 63): 581 ± 121 mm^3
tumor volume (mm^3 ± SEM) (N87 gastric xenografts; Dose 10 mg/kg Q4dx4 iv, DAY 70): 726 ± 163 mm^3
tumor volume (mm^3 ± SEM) (N87 gastric xenografts; Dose 10 mg/kg Q4dx4 iv, DAY 77): 797 ± 184 mm^3
